The values that follow come from patent US5109111A, “CRF antagonists” (The Salk Institute for Biological Studies, priority 1990, dated 1992).

The subject of the assay is secretion of ACTH stimulated by oCRF in cultured rat pituitary cells. As to the kind of experiment: Blocking of oCRF-stimulated ACTH and β-endorphin secretion by cultured rat pituitary cells. Format: cell-based. The settings on record: result in words. As for the experimental part:
The effectiveness of synthetic CRF antagonists to block the secretion of ACTH and β-endorphin by cultured rat pituitary cells is measured using the procedure as generally set forth in Vale et al., Endocrinology, 91, 562 (1972).

Molecules are shown by their SMILES.

Consider `CCCC[C@H](NC(=O)[C@H](CC(C)C)NC(=O)[C@H](CCCCN)NC(=O)[C@H](CCCNC(=N)N)NC(=O)[C@H](CC(N)=O)NC(=O)[C@H](CO)NC(=O)[C@H](Cc1c[nH]cn1)NC(=O)[C@H](C)NC(=O)[C@H](CCC(N)=O)NC(=O)[C@H](CCC(N)=O)NC(=O)[C@H](C)NC(=O)[C@H](CC(C)C)NC(=O)[C@H](CCC(N)=O)NC(=O)[C@H](CC(=O)O)NC(=O)[C@H](C)NC(=O)[C@H](CCCCN)NC(=O)[C@@H](NC(=O)[C@H](CCCC)NC(=O)[C@H](CCC(=O)O)NC(=O)[C@H](CC(C)C)NC(=O)[C@@H](NC(=O)[C@H](CCC(=O)O)NC(=O)[C@H](CCCNC(=N)N)NC(=O)[C@H](CC(C)C)NC(=O)[C@H](CC(C)C)NC(=O)[C@H](Cc1c[nH]cn1)NC(=O)[C@H](N)Cc1ccccc1)C(C)C)[C@@H](C)O)C(=O)N[C@@H](CC(=O)O)C(=O)N[C@H](C(=O)N[C@@H](C)C(N)=O)[C@@H](C)CC` [XXXVI, [D-Phe^12, Nle^21,38]-oCRF(12-41)], for which the “inhibition of the secretion of ACTH and β-END-LI” value is “inhibits the secretion of ACTH and β-END-LI”.
Turning to `CCCC[C@H](NC(=O)[C@H](CC(C)C)NC(=O)[C@H](CCCNC(=N)N)NC(=O)[C@H](CCCNC(=N)N)NC(=O)[C@H](CC(N)=O)NC(=O)[C@H](CO)NC(=O)[C@H](Cc1c[nH]cn1)NC(=O)[C@H](C)NC(=O)[C@H](CCC(N)=O)NC(=O)[C@H](CCC(N)=O)NC(=O)[C@H](C)NC(=O)[C@H](CC(C)C)NC(=O)[C@H](CCC(N)=O)NC(=O)[C@H](CC(=O)O)NC(=O)[C@H](C)NC(=O)[C@H](CCCCN)NC(=O)[C@@H](NC(=O)[C@H](CCCC)NC(=O)[C@H](CCC(=O)O)NC(=O)[C@H](CC(C)C)NC(=O)[C@@H](NC(=O)[C@H](CCC(=O)O)NC(=O)[C@H](CCCNC(=N)N)NC(=O)[C@H](CC(C)C)NC(=O)[C@H](CC(C)C)NC(=O)[C@H](Cc1c[nH]cn1)NC(=O)[C@H](N)Cc1ccccc1)C(C)C)[C@@H](C)O)C(=O)N[C@@H](CC(=O)O)C(=O)N[C@H](C(=O)N[C@@H](C)C(N)=O)[C@@H](C)CC` [XXXVII, [D-Phe^12, Nle^21,38, Arg^36]-oCRF (12-41)], the “inhibition of the secretion of ACTH and β-END-LI” value was “inhibits the secretion of ACTH and β-END-LI”.
